Test [1] has as its target T1, human recombinant Btk (Homo sapiens (Human), UniProt Q06187). Description: biochemical.
The target in test [2] is T1, human recombinant Btk. Particulars: Caliper-based kinase assay; human recombinant Btk 2 nM, ATP 40 μM, peptide substrate 1 μM, room temperature 3 h.

Amino acid sequences for entries named in this document (tags omitted). A change or cut given only in a name is not applied to a line headed by its entry.
UniProt Q06187: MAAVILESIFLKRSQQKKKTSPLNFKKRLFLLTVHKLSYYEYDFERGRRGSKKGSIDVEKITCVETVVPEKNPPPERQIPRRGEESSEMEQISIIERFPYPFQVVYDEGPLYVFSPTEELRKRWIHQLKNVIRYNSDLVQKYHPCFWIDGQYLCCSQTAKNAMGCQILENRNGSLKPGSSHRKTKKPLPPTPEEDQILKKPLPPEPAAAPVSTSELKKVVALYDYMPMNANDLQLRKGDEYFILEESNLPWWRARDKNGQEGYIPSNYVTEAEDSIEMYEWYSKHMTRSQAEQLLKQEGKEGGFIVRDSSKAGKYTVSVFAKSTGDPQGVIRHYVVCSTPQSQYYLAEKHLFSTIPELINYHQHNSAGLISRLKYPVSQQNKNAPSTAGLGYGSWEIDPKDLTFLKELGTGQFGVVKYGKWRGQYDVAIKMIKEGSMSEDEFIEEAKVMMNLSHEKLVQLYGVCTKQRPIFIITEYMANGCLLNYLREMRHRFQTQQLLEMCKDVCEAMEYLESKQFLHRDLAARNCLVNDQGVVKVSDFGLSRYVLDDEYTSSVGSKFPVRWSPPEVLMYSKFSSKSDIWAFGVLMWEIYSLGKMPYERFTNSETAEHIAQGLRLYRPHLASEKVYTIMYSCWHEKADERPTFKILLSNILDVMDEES

Read-outs that look alike come from different tables or passages of the source.
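Also: Read-out is the quantity of phosphorylated substrate product formed, and IC50 reflects inhibition of Btk kinase activity.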

As a reminder, the IC50 is the concentration at which inhibition is half-maximal. Take `N#CC(=CC1CC1)C(=O)N1CCC[C@@H](n2cc(-c3ccc(Oc4ccccc4)cc3F)c3c(N)ncnc32)C1` [Example 56A, (R)-2-(3-(4-amino-5-(2-fluoro-4-phenoxyphenyl)-7H-pyrrolo[2,3-d]pyrimidin-7-yl)piperidine-1-carbonyl)-3-cyclopropylacrylonitrile]: the IC50 on human recombinant Btk [1] was 3.3 nM.

`N#CC(=CC1CC1)C(=O)N1CCC[C@@H]1Cn1nc(-c2ccc(Oc3ccccc3)cc2Cl)c2c(N)ncnc21` [Example 70A, (R)-2-(2-((4-amino-3-(2-chloro-4-phenoxyphenyl)-1H-pyrazolo[3,4-d]pyrimidin-1-yl)methyl)pyrrolidine-1-carbonyl)-3-cyclopropylacrylonitrile]: the IC50 on human recombinant Btk [1] stood at 11 nM.

`CC(C)C=C(C#N)C(=O)N1CCC[C@@H]1Cn1nc(-c2ccc(Oc3cc(F)ccc3F)cc2)c2c(N)ncnc21` [Example 71A, (R)-2-(2-((4-amino-3-(4-(2,5-difluorophenoxy)phenyl)-1H-pyrazolo[3,4-d]pyrimidin-1-yl)methyl)pyrrolidine-1-carbonyl)-4-methylpent-2-enenitrile]: the 50% inhibitory concentration (IC50) at human recombinant Btk [1] is 7 nM.

Take `CCN(CC)C(C)(C)C=C(C#N)C(=O)N1CCC[C@@H]1Cn1cc(-c2ccc(Oc3ccccc3)cc2)c2c(N)ncnc21` [Example 180B]: the IC50 on human recombinant Btk [2] is 4 nM.

As for `N#C/C(=C\C1CCCN1)C(=O)N1CCC[C@H]1Cn1nc(-c2ccc(Oc3ccccc3)cc2F)c2c(N)ncnc21` (some centres unmarked) [Example 186], the IC50 at human recombinant Btk [2] is 3.7 nM.
